Read-outs that look alike come from different tables or passages of the source.
What was measured:
[1] = target: human DDX3 (ATPase activity) (Homo sapiens, UniProt O00571); assay: Human DDX3 ATPase activity assay (luciferase-based luminescence); settings: read-out: Ki (μM), apparent equilibrium dissociation constant for the inhibitor to the target enzyme DDX3
Experimental: ATPase activity was tested with a luciferase-based luminescence assay (Easylite-Kinase, Perkin Elmer) on 96 wells microtiter plates. Briefly, recombinant purified human DDX3 (50-100 ng) was incubated in a 15 μL total reaction volume with reaction buffer (25 mM TrisHCl pH 7.5, 5 mM MgCl2), in the presence of increasing amounts of ATP and/or different combinations of ATP and the inhibitor to be tested. Reference curves in the absence of inhibitor (giving the 100% of enzymatic activity) and in the absence of enzyme (giving the baseline), were also included in each experiment. Reading was performed with a Microbeta Trilux (Perkin Elmer) luminometer, according to the manufacturer's protocol.
ATPase reactions were performed as described, in the presence of increasing amounts of inhibitor and variable ATP concentrations. Variations of the initial velocities of the reaction as a function of ATP concentrations in the absence or presence of 4 were analyzed with the equation: […]
where Vmax is the apparent maximal rate of the reaction in the absence of the inhibitor, [I] is the variable inhibitor concentration, n is the cooperativity index and Ki(app) is the apparent inhibition constant. […] F test was used to compare the two fittings and p value was calculated. […]

Chains of the proteins cited; added tags and fusions are not shown.
UniProt O00571, whole entry: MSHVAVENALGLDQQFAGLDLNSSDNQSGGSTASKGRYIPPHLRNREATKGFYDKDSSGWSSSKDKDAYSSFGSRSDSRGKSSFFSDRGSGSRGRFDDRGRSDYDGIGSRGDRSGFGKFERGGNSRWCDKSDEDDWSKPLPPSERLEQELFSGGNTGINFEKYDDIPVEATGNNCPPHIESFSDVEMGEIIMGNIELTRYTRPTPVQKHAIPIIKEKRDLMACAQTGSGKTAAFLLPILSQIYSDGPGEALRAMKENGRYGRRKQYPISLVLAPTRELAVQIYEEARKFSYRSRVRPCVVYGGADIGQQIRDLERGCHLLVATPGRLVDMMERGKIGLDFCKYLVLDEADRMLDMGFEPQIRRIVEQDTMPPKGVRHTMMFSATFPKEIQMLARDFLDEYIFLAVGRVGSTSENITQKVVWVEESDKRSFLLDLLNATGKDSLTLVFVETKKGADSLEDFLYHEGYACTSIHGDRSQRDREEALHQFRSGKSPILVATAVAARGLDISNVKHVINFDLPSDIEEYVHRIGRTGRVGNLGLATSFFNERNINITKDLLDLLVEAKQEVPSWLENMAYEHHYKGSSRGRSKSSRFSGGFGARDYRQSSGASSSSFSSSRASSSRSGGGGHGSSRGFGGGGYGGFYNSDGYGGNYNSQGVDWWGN

[2] = tested on: cervical cancer HeLa cell line; assay: Antiproliferative activity against HeLa cells (CellTiter viability assay)
Experimental: Selected compounds from Table 1 were tested against the cervical cancer HeLa cell line for antiproliferative activity. Cell viability was measured with the CellTiter viability assay (Table 2). Table 3 lists the calculated antiproliferative potencies (EC50, dose required to suppress 50% of cell viability) for a series of representative compounds of the invention.

Oc1ccccc1/C=N/Nc1nc(NCc2ccc(F)cc2)nc(N2CCOCC2)n1 gave a Ki [1] of 0.6 µM, an EC50 ([2]; read-out: EC50 (μM) 48 hours, dose required to suppress 50% of cell viability, 48 hours) of 5 µM and an EC50 ([2]; read-out: EC50 (μM) 72 hours, dose required to suppress 50% of cell viability, 72 hours) of 2 µM.

From patent US20120202814A1, “COMPOUNDS WITH DDX3 INHIBITORY ACTIVITY AND USES THEREOF” (UNIVERSITÀ DEGLI STUDI DI SIENA, priority 2009, published 2012)
